Experimental data published in patent publication US9220775B2, “Binding molecules specific for HER3 and uses thereof” (Medlmmune LLC, priority 2011, dated 2015).

Assays:
LOVO xenograft tumors = experiment: Subcutaneous human LOVO CRC xenograft model; assay type: in vivo, mouse; conditions: all at 10 mg/kg
Procedure: Human LOVO colorectal carcinoma cells (ATCC No. CCL-229) were maintained at 37° C. in a 5% CO2 incubator in HAM'S F12K medium containing 4.5 g/L glucose, L-glutamine, sodium pyruvate and 10% fetal bovine serum. Xenografts were established by subcutaneously injecting 5×10^6 cells per mouse into the right flanks of 4- to 6-week-old athymic nu/nu mice. Tumors were allowed to grow up to 200 mm^3 before randomization for efficacy studies. […] Caliper measurements were used to calculate tumor volumes using the formula: tumor volume=π÷6(length×width×width) • for tumors grown in mice.

[1] = system: Detroit562 xenograft tumors; experiment: Subcutaneous human Detroit562 head and neck xenograft model; assay type: in vivo, mouse; conditions: 10 mg/kg twice per week
Source text: (§1) Xenografts were established by subcutaneously injecting 5×10^6 cells per mouse into the right flanks of 4- to 6-week-old athymic nu/nu mice. Tumors were allowed to grow up to 200 mm^3 before randomization for efficacy studies. […] Caliper measurements were used to calculate tumor volumes using the formula: tumor volume=π÷6(length×width×width) • for tumors grown in mice.

HCT-116 xenograft tumors = experiment: Subcutaneous human HCT-116 CRC xenograft model; assay type: in vivo, mouse; conditions: 10 mg/kg twice per week
Source text: as §1

HT-29 xenograft tumors = experiment: Subcutaneous human HT-29 CRC xenograft model; assay type: in vivo, mouse; conditions: 2C2 and 2C2-YTE 30 mg/kg, cetuximab 10 mg/kg
Source text: as §1

[2] = system: HER3, pHER3 and pAKT in SW620, SW480, Colo205, LOVO, HCT15 and Caco-2 cells; experiment: HRG ligand-dependent signaling in CRC tumor cell lines (Western blot); assay type: cell-based, human; conditions: antibodies 10 μg/mL, gefitinib 5 μM, HRG 50 ng/mL
Procedure: In the presence of the HER3 ligand heregulin (HRG), HER3 heterodimerizes with EGFR or HER2, which leads to phosphorylation of HER3 and transmission of an oncogenic signal via phosphoinositide 3 kinase (PI3K) and protein kinase B (PKB), also known as AKT. A collection of CRC models were characterized to determine which receptor tyrosine kinase, EGFR or HER2, is the major driver of signaling through HER3. […] Briefly, cells were seeded into 24-well plates at a density of 1.5×10^5 cells per well. […] After 5-6 hours of incubation at 37° C., HRG was added at 50 ng/mL into one set of cells for 15 minutes at 37° C. All cells were then washed with cold PBS and lysed by the addition of 60 μL of 2×SDS (sodium dodecyl sulfate) sample buffer (Invitrogen). Lysates were transferred to 1.5 mL tubes and boiled for 5 minutes followed by chilling on ice for 2 minutes. Equal volumes (20 μL) of protein samples were resolved in NuPAGE Novex Bis-Tris gels (Invitrogen) before transfer to polyvinylidene fluoride (PVDF) membranes (Invitrogen). […] After washing, protein bands were detected on X-ray film by using SuperSignal West Pico Chemiluminescent Substrate (Pierce/Thermo Scientific).

[3] = system: MDA-MB-361 xenograft tumors; experiment: Orthotopic human MDA-MB-361 breast cancer xenograft model; assay type: in vivo, mouse; conditions: 2C2-YTE 30 mg/kg, trastuzumab and rhuMAb 2C4 10 mg/kg, lapatinib 100 mg/kg twice daily
Procedure: (§2) Orthotopic xenografts were established by injecting 5×10^6 cells per mouse (suspended in 50% matrigel) into the mammary fat pad on the right flank of 4 to 6-week-old athymic nu/nu mice. Estrogen pellets (0.36 mg) were placed under the skin of the left flank 1-2 days before cell injection. […] Lapatinib was administered by oral gavaging at 100 mg per kilogram body weight. Caliper measurements were used to calculate tumor volumes using the formula: tumor volume=π÷6(length×width×width) • for tumors grown in mice.

MCF-7 xenograft tumors = experiment: Orthotopic human MCF-7 breast cancer xenograft model; assay type: in vivo, mouse; conditions: antibodies 10 mg/kg, paclitaxel 10 mg/kg i.v. every second day for ten days
Procedure: as §2, with “Human MCF-7 breast cancer cells were maintained at 37° C. in a 5% CO2 incubator in Optimem medium containing glutamax, 2.4/L sodium bicarbonate, Hepes and 5% fetal bovine serum. Orthotopic” for “Orthotopic”, “injection. Tumors were allowed to grow up to 200 mm^3 before randomization for efficacy studies. 2C2, 2C2-YTE and trastuzumab monoclonal antibodies were administered intraperitoneally.” for “injection.”, “Paclitaxel” for “Lapatinib”, “intravenously” for “by oral gavaging”, “10” for “100”

BT-474 and SkBR3 = experiment: PBMC-enabled ADCC assay; assay type: cell-based, human; conditions: data not shown
Procedure: ADCC is one recognized way through which a monoclonal antibody can confer its anti-tumor efficacy in vivo. […] 2C2-YTE was tested in CDC assays using human serum as a source of complement.

## cetuximab [reference compound]
LOVO xenograft tumors
  Anti-tumor efficacy: comparable efficacy
[1]
  Anti-tumor efficacy: caused tumor growth inhibition
HCT-116 xenograft tumors
  Anti-tumor efficacy: no efficacy
HT-29 xenograft tumors
  Anti-tumor efficacy: no measurable anti-tumor activity
[2]
  HRG ligand-dependent signaling (HER3, pHER3, pAKT): no effect

## trastuzumab
[3]
  Anti-tumor efficacy: showed anti-tumor efficacy
MCF-7 xenograft tumors
  Anti-tumor efficacy: did not demonstrate efficacy
BT-474 and SkBR3
  ADCC effect: significant tumor-killing effects
